The record followed here is publication PMC5358098 (ACS chemical neuroscience, 2016).

Amino acid sequences for entries named in this document (tags omitted).
UniProt P47746, whole entry: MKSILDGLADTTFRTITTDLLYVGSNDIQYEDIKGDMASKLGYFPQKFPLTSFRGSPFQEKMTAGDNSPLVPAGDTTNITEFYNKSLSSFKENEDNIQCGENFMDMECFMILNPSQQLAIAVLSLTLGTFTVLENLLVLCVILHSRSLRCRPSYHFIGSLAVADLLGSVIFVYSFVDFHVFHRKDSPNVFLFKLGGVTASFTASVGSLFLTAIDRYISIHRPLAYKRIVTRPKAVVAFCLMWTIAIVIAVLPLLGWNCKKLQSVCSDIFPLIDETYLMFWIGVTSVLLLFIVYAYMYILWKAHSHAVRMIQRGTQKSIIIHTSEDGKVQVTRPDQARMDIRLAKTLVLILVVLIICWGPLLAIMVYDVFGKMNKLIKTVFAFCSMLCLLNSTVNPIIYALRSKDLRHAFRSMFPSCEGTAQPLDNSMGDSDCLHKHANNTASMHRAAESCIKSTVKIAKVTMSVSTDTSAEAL

Assay [1] concerns the target CB1R (Mus musculus, UniProt P47746). The assay is described as follows: Operational model bias analysis, Neuro2a cells. The assay is classed as cell-based. The conditions noted are these: reference 2-AG + GAT100.
Assay [2] deals with hCB1R. The assay can be described thus: Operational model bias analysis, HEK293A cells. The assay is classed as cell-based, human. To be noted: reference 2-AG + GAT100.
The mark [3] stands for this setting: 500 nM 2-AG + 1 nM-10 μM allosteric modulator.
[4] abbreviates: 500 nM AEA + 1 nM-10 μM allosteric modulator.
Setting [5] is: 500 nM CP55,940 + 1 nM-10 μM allosteric modulator.

Structures are written as SMILES.

In the case of `CCc1c(C(=O)NCCc2ccc(N3CCCCC3)cc2)[nH]c2ccc(N=C=S)cc12` [GAT100, 3-ethyl-5-isothiocyanato-N-(4-(piperidin-1-yl)phenethyl)-1H-indole-2-carboxamide], the “ΔΔlog R β-arrestin1/pERK1/2” value is reported as 0.0 ± 0.1 in assay [1] (setting [3]); 0.9 ± 0.1 in assay [1] (setting [4]); 1.0 ± 0.1 in assay [1] (setting [5]); 0.0 ± 0.1 in assay [2] (setting [3]); “–0.6 ± 0.1” in assay [2] (setting [4]); “–0.2 ± 0.1” in assay [2] (setting [5]).
Turning to `CCc1c(C(=O)NCCc2ccc(N3CCCCC3)cc2)[nH]c2ccc(Cl)cc12` [Org27569, 5-chloro-3-ethyl-N-(4-(piperidin-1-yl)phenethyl)-1H-indole-2-carboxamide], the “ΔΔlog R β-arrestin1/pERK1/2” value is listed as 0.5 ± 0.2 in assay [1] (setting [3]); 0.2 ± 0.2 in assay [1] (setting [4]); 0.5 ± 0.9 in assay [1] (setting [5]); “–1.1 ± 0.1” in assay [2] (setting [3]); 1.2 ± 0.8 in assay [2] (setting [4]); 0.6 ± 0.4 in assay [2] (setting [5]).
